The test addresses BPTI (aprotinin) (bovine, UniProt P00974).

Here are results for 1 molecule from patent US20080026998 (published 2008).

B1: factor VIIa-tissue factor (protein)
chain 1: ANAFLEELRPGSLERECKEEQCSFEEAREIFKDAERTKLFWISYSDGDQCASSPCQNGGSCKDQLQSYICFCLPAFEGRNCETHKDDQLICVNENGGCEQYCSDHTGTKRSCRCHEGYSLLADGVSCTPTVEYPCGKIPILEKRNASKPQGRIVGGKVCPKGECPWQVLLLVNGAQLCGGTLINTIWVVSAAHCFDKIKNWRNLIAVLGEHDLSEHDGDEQSRRVAQVIIPSTYVPGTTNHDIALLRLHQPVVLTDHVVPLCLPERTFSERTLAFVRFSLVSGWGQLLDRGATALELMVLNVPRLMTQDCLQQSRKVGDSPNITEYMFCAGYSDGSKDSCKGDSGGPHATHYRGTWYLTGIVSWGQGCATVGHFGVYTRVSQYIEWLQKLMRSEPRPGVLLRAPFP
chain 2: SGTTNTVAAYNLTWKSTNFKTILEWEPKPVNQVYTVQISTKSGDWKSKCFYTTDTECDLTDEIVKDVKQTYLARVFSYPAGNVESTGSAGEPLYENSPEFTPYLETNLGQPTIQSFEQVGTKVNVTVEDERTLVRRNNTFLSLRDVFGKDLIYTLYYWKSSSSGKKTAKTNTNEFLIDVDKGENYCFSVQAVIPSRTVNRKSTDSPVECMGQEKGEFRE
With B1, the binding result is on record as “no binding”.
